# Laboratory results as given in patent US5424292A (Depha Team s.r.l., priority 1990, dated 1995).
# Conditions: male Fischer rats, doses equivalent to 60 mg/kg of 5-ASA via metal probe into stomach; for Recovery percentages of 5-ASA + N-acetyl-5-ASA in feces by HPLC: feces withdrawn at 2 hour intervals for 48 hours; for Recovery percentages of 5-ASA + N-acetyl-5-ASA in urine by HPLC: urine withdrawn at 2 hour intervals for 48 hours
Substance,Recovery percentages of 5-ASA + N-acetyl-5-ASA in feces by HPLC [%],Recovery percentages of 5-ASA + N-acetyl-5-ASA in urine by HPLC [%]
5-aminosalicyl L-proline-L-leucine [Compound 4],25 ± 4,53 ± 3
(N-L-aspartyl)-amino-2-salicylic acid [Compound 3],46 ± 3,33 ± 3
